Measurements taken from patent US6960559B1, “Neurite growth regulatory factors” (University of Zurich, priority 1988, dated 2005).

Tested on: C6 cells
Experiment: C6 cell spreading on CNS myelin or PLYS with protease inhibitors
Assay type: cell-based, rat
Settings: spreading on PLYS minus spreading on CNS myelin
Protocol: Rat C6, mouse NIH 3T3 and B16 cells were cultured in Dulbecco's modified Eagle's medium (DMEM) supplemented with 10% fetal calf serum (FCS), usually to maximally 70-80% confluency. Cells were harvested with a short trypsin treatment (0.1% in Ca^2+/Mg^2+-free Hank's medium for 90 seconds) stopped by addition of FCS in excess, collected by centrifugation. Cells were resuspended in either DMEM/FCS or defined serum-free medium (MEM) and used for experiments. […]
Myelin from rat spinal cord (CNS) or sciatic nerve (PNS) purified on a discontinuous sucrose gradient as described in Section 6.1.5., was dried overnight onto PLYS coated wells (20 μg protein/well of 100 mm^2 surface). […] Experiments were scored at different time points using a phase contrast microscope equipped with a photocamera. Quantifications were done using a surface integration program; three arbitrary fields were photographed for each well at a magnitude of 80×, at least 25 cells per picture were measured. […] Results are expressed as μ^2 of projected cell surface, or as degree, which was calculated by subtracting from the projected surface value of a spreading cell, the surface value of a completely spheric cell.

NCCCCCC(=O)O [6-amino-capronate]
Inhibition on CNS (%): 0%
